System: Colo320 ecDNA+ and Colo320 ecDNA− cells
Assay: CellTiter-glo viability assay, 7 days, Colo320 ecDNA+ vs ecDNA−
Type: cell-based
Method: Sensitivity of an ecDNA+ (Colo320 ecDNA+) and an ecDNA− (Colo320 ecDNA−) cell line models to WEE1 inhibition was determined by treating each with increasing concentrations of either adavosertib or PD0166285 over a 7 day period. Cell proliferation was determined using a MTS assay (FIG. 27, top panels), while viability was determined using CellTiter-glo assay (FIG. 27 bottom panels).
Cell proliferation was determined using a MTS assay (FIG. 36, top panels), while viability was determined using CellTiter-glo assay (FIG. 36, bottom panels).

With C[C@@H]1COCCN1c1cc(-c2ccnn2C)c2ccnc(-c3ccn[nH]3)c2n1 [BAY1895344] the “sensitivity of Colo320 ecDNA+ compared with ecDNA− cells, viability changes” value was “enhanced sensitivity”.

From patent US11642345B2, “Replication stress pathway agent compositions and methods for treating cancer” (Boundless Bio, Inc., priority 2020, dated 2023)
